Series [1] is described as follows: Zeta potential analysis (Malvern ZetaSizer). Type of series: physicochemical. The source says: (§1) Starch nanoparticle samples 1-6 are dispersed at 0.025% solids and analyzed by various particle characterization techniques, including zeta potential and DLS analysis using a Malvern ZetaSizer, and Nanoparticle Tracking Analysis (NTA) using a NanoSight NS300.
The nature of series [2]: Particle size analysis (DLS, NTA). In kind it is physicochemical.
Excerpt: as §1

Zeta potential and particle size data for 1 substance are collected here from patent publication US12023388B2, “Detection and treatment of caries and microcavities with nanoparticles” (THE REGENTS OF THE UNIVERSITY OF MICHIGAN, priority 2015, dated 2024).

FITC-dextran: in series [1], the zeta potential entry is given as “approximately +6 mV”. The particle size result in series [2] was “approximately 100 nm”.
